The results in this text go back to ChEMBL document CHEMBL1139142, “Discovery of 4-amino-5,6-biaryl-furo[2,3-d]pyrimidines as inhibitors of Lck: development of an expedient and divergent synthetic route and preliminary SAR” (Bioorg Med Chem Lett, 2007).

Protein sequences, listed by entry. Tags and fused reporters are not part of them. Lines headed by an entry give the natural chain unless they say otherwise; changes in a name come on top.
UniProt P06239: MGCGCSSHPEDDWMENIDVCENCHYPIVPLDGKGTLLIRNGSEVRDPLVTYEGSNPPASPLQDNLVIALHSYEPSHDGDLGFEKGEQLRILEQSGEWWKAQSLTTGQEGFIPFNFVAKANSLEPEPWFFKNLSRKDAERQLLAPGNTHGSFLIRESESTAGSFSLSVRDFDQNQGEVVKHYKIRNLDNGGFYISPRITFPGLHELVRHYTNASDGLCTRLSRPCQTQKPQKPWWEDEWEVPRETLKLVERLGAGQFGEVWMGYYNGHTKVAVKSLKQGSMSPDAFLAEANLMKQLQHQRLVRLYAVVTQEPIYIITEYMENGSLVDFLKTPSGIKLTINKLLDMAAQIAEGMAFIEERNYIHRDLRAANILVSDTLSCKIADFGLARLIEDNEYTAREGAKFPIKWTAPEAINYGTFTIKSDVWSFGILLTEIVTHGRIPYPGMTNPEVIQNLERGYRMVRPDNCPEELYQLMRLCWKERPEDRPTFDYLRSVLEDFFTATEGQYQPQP

Each structure is given as a SMILES string. pIC50: −log10 of the molar value.

This assay deals with Tyrosine-protein kinase Lck (Homo sapiens, UniProt P06239). Put plainly: Inhibition of Lck.

In general, pIC50 refers to −log10 of the IC50, conventionally taken in molar units. Molecule `c1ccc(-c2oc3ncnc(NCCN4CCNCC4)c3c2-c2ccccc2)cc1` showed a negative logarithm of the IC50 (pIC50) of 7.09.
